Chains of the proteins cited; added tags and fusions are not shown.
UniProt P51681, whole entry: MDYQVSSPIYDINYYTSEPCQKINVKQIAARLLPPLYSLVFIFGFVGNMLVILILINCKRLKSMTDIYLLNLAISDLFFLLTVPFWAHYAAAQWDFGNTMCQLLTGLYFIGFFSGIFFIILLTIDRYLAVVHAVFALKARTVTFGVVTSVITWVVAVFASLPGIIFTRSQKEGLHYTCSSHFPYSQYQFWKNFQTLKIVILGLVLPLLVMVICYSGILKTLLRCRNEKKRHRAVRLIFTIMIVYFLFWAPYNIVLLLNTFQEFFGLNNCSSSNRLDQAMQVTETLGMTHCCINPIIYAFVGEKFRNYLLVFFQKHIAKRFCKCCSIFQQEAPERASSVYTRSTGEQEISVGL

According to patent US7825121B2, “Piperazine derivatives useful as CCR5 antagonists” (Schering Corporation, priority 1999, dated 2010):

Target: T1, human CCR5 chemokine receptor (Homo sapiens, UniProt P51681)
T1 construct: expressed in transfected cells; host or cells: NIH 3T3 cells (murine), membranes
Test: CCR5 membrane binding assay (inhibition of RANTES binding)
Conditions: 125I-RANTES, membranes from NIH 3T3 cells expressing human CCR5
Method: CCR5 Membrane Binding Assay:
A high throughput screen utilizing a CCR5 membrane binding assay identifies inhibitors of RANTES binding. This assay utilizes membranes prepared from NIH 3T3 cells expressing the human CCR5 chemokine receptor which have the ability to bind to RANTES, a natural ligand for the receptor. […] Compounds are serially diluted over a wide range of 0.001 ug/ml to 1 ug/ml and tested in triplicates. Reaction cocktails are harvested through glass fiber filters, and washed thoroughly.
In the table, “Ex. No.” stands for “Example Number” and “nM” stands for “nanomolar.”

Molecule Cc1ncnc(C)c1C(=O)N1CCC(C)(N2CCN([C@@H](C)c3ccc(C(F)(F)F)cc3)[C@@H](C)C2)CC1 [Example 23] has a Ki of 2.95 nM.
